According to US20130005749A1, “NOVEL FORMULATION AND TREATMENT METHODS” (The University of Queensland, priority 2011, published 2013):

Test system: C57BL/6 mice
Experiment: Veno-occlusive disease (VOD/SOS) blinded histological score in C57BL/6 mice
Settings: for SOS (VOD): C57BL/6 mice gavaged daily for 14 days, 6-TG 2.5, 6-MP ≦5, methyl-6-MP ≦5, methyl-6-TG ≦2.5 mg/kg body weight/day

| VOD score (divided dose 1.25 mg/kg twice daily oral gavage, 11 days, compared with single bolus 2.5 mg/kg) | SMILES | SOS (VOD) |
| --- | --- | --- |
| – | Sc1ncnc2nc[nH]c12 [Formulation 6-MP, 3,7-dihydropurine-6-thione] | not 6-MP or their methylated bases causes SOS |
| significantly less VOD score | Nc1nc2nc[nH]c2c(=S)[nH]1 [Formulation 6-TG, 2-amino-6,7-dihydro-3H-purine-6-thione] | SOS (VOD) was only observed in the mice treated with 6-TG |
